Assay [1] concerns the target Recombinant mouse PD-L1 with His-tag (mouse, UniProt Q9EP73). The assay is described as follows: AlphaScreen or HTRF. (Alpha assays give light when donor and acceptor beads are brought close together.)
Assay [2] deals with T1, Recombinant human PD-L2 with His-tag (human, UniProt Q9BQ51).
T1 sequence: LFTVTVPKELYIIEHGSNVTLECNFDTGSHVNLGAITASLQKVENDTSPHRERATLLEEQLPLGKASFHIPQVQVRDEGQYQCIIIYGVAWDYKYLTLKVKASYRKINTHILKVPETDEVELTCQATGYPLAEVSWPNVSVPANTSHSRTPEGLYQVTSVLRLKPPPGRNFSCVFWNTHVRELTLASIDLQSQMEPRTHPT
The assay is described as follows: AlphaScreen or HTRF.

B1: Recombinant human PD-1 protein with an Fc tag (Fc fusion)
chain: LDSPDRPWNPPTFSPALLVVTEGDNATFTCSFSNTSESFVLNWYRMSPSNQTDKLAAFPEDRSQPGQDCRFRVTQLPNGRDFHMSVVRARRNDSGTYLCGAISLAPKAQIKESLRAELRVTERRAEVPTAHPSPSPRPAGQFQTLV
Regarding B1, the binding result in assay [1] and in assay [2] was “binds” throughout.

These data come from article PMC9394386 (Cancer Discovery, 2022).
